Assay results: US6747058B1, “Stable composition for inhalation therapy comprising delta-9-tetrahydrocannabinol and semiaqueous solvent therefor” (Unimed Pharmaceuticals, Inc., priority 1999, dated 2004)
Several values for one entry are separate records, joined by “and”; a condition that tells them apart may be missing. Equal entries are not always repeated.

Test: Solubility of increasing delta-9-THC concentration in alcohol:water:propylene glycol 35:10:55 vehicle, visual observation
Assay type: physicochemical
Conditions: Alcohol:Water:Propylene Glycol (35:10:55) (v/v); listed as delta-9-tetrahydrocannabinol

For CCCCCc1cc(O)c2c(c1)OC(C)(C)[C@@H]1CCC(C)=C[C@@H]21, the “delta-9-tetrahydrocannabinol concentration able to be manufactured with this formulation” value was > 100 mg/mL and < 200 mg/mL.
